Data published in patent US5326774A, “Pharmaceutical preparation of antihypertensive, antianginal, antiarrhythmic and antiglaucomic action” (priority 1992, dated 1994).

Experiment: in vivo
Conditions: mouse

CC(CCc1ccccc1)NCC(O)c1ccc(O)c(C(N)=O)c1 (centres unmarked) [Labetalol, labetalol]
LD50 at 72 h (iv): 97.5 mg/kg | LD50 at 72 h (po): 660 mg/kg
